Columns and labels:
[1] = tested on: histamine-induced bronchospasm; test: Bronchospasm by inhalation of a histamine solution; assay type: in vivo, guinea-pig; settings: Cavia porcellus, po; guinea-pigs, p.o.; comparative test; read-out: Bronchospasm by oral administration ED50
Description: J--Bronchospasm by inhalation of a histamine solution
Guinea-pigs are placed in a closed chamber into which histamine is introduced as an aerosol, and only those which show very distinct signs of asphyxia within four minutes are selected.
The substance to be studied is administered to groups of guinea-pigs thirty minutes before a further period in the chamber in order to check the resistance to histamine. A guinea-pig is considered to be protected if it resists the histamine aerosol for ten minutes without showing signs of asphyxia.
A 50% effective dose is calculated from the results obtained.

[2] = tested on: lethal dose of histamine (histaminic shock); test: Antihistaminic activity (protection from a lethal dose of histamine, histaminic shock); assay type: in vivo, guinea-pig; settings: Cavia porcellus, po; guinea-pigs, p.o.; comparative test; read-out: Histaminic shock by oral administration ED50
Description: K--Antihistaminic activity
This test assesses the dose which protects fifty per cent of guinea-pigs from a lethal dose of histamine.
The product is administered thirty minutes before the intravenous injection of histamine hydrochloride (1 mg/kg).
The 50% effective dose is calculated from the results obtained.

CC(C)(C)c1ccc(C(O)CCCN2CCC(C(O)(c3ccccc3)c3ccccc3)CC2)cc1 (centres unmarked) [Terfenadine]
ED50 [1]: 1.6 mg/kg | ED50 [2]: 2.58 mg/kg

— patent publication US4983614A, “Benzhydryloxyethylpiperidine derivatives, process for their preparation and pharmaceutical compositions, in which they are present” (priority 1986, dated 1991)
